# Source: patent publication EP0451834B1, “Alpha-mannosidase and fucosidase inhibitors” (MERRELL PHARMACEUTICALS INC., priority 1990, dated 1991)
# pIC50: −log10 of the molar value.
# Biological target: T1, α-Mannosidase (Jack bean) (Canavalia ensiformis, UniProt C0HJB3)
# T1 sequence (C0HJB3 1-981): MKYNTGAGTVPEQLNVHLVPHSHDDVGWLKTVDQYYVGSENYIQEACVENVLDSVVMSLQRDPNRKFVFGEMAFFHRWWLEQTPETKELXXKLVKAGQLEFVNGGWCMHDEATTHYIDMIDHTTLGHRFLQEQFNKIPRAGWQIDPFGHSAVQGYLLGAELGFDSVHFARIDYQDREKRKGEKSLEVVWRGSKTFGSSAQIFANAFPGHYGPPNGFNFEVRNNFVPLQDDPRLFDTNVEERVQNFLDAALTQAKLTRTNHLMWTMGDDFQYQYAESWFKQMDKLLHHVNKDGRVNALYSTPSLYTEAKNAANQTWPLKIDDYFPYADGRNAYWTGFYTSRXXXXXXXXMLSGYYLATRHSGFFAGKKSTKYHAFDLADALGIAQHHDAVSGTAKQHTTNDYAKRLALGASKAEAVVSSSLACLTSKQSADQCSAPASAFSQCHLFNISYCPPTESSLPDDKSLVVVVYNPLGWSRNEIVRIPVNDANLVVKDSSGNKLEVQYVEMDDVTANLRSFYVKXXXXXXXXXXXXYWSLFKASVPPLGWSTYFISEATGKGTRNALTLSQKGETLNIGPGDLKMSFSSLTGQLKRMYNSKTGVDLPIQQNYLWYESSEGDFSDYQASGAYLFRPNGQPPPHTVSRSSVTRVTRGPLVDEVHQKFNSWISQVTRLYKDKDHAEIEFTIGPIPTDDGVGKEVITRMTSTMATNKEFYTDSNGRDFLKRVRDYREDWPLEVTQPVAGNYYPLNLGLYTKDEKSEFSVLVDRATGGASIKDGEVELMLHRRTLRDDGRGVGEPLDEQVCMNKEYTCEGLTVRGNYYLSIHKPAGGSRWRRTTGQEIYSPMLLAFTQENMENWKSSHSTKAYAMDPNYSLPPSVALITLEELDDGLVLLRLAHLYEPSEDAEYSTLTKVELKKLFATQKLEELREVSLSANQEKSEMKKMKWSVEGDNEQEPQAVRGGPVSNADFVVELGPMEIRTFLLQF
# Assay: Mannosidase screening assay (p-nitrophenyl-α-mannopyranoside substrate, absorbance at 405 nm)
# Type: biochemical
# Experimental: The compounds of this invention are alpha-mannosidase and alpha-fucosidase inhibitors. This can be demostrated by the ability of the compound to inhibit Jack bean mannosidase or mannosidase II as follows: Mannosidase Screening Assay (Kang, et al., Plant Physiol. 71:551-554 (1983)). Activities of mannosidase are first screened with Jack bean enzyme using p-nitrophenyl substrate as follows using a 96-well microplate. Total Rxn mix 200µl. • 1. Add compounds to be tested and dilute to 100µl with H2O. • 2. Add 25µl of 1M sodium acetate buffer pH 4.5 containing 10mM ZnCl2. • 3. Add 25µl of enzyme or approximately 0.05 µg protein. • 4. Mix and incubate at R.T. for 30 min. • 5. Add 50µl of 10 mM p-nitrophenyl-α-mannopyranoside in H2O to start the Rxn and incubate 37° for 30 min. Stop reaction by addition 100µl of 0.2M (2%) sodium carbonate solution (pH∼12). Read absorbance at 405 nm. Mannosidase II Assay (Elbein, et al., Methods Enz. Vol. 179, P.468). The compounds which show activity against Jack bean are checked against purified α-mannosidase II as follows with 100 µl Total Rxn Volume. • 1. Add compounds to be tested and dilute to 60µl with H20. • 2. Add 10µl of 0.5 M MES buffer pH 6.0. • 3. Add 10µl of 1% Triton X-100. • 4. […] Stop reaction with 20µl of acetic acid, add 1 ml of Con A Buffer B, and determine the radioactivity released by Con A column chromatography.
structure (smiles),measurement,value
O[C@H]1[C@H]2[C@H](O)CCCN2C[C@H]1O [Swainsonine],pIC50,7.06
